{"source": "patent US5670510A", "about": "“Pyridyl substituted spirodienes for the treatment of inflammation” (G. D. Searle & Co., priority 1996, dated 1997)", "test_system": "COX II", "conditions": "read-out: COX II ID50; arachidonic acid 10 μM; pH 8.0; pre-incubated 10-20 minutes", "description": "The COX II inhibition activity of the compounds of this invention illustrated in the Examples was determined by the following methods.\nRecombinant baculoviruses were isolated by transfecting 4 μg of baculovirus transfer vector DNA into SF9 insect cells ([…]) along with 200 ng of linearized baculovirus plasmid DNA by the calcium phosphate method. […] Exp. Station Bull. 1555 (1987). Recombinant viruses were purified by three rounds of plaque purification and high titer (10E7-10E8 pfu/ml) stocks of virus were prepared. For large scale production, SF9 insect cells were infected in 10 liter fermentors (0.5×10^6 /ml) with the recombinant baculovirus stock such that the multiplicity of infection was 0.1. After 72 hours the cells were centrifuged and the cell pellet homogenized in Tris/Sucrose (50 mM: 25%, pH 8.0) containing 1% 3-[(3-cholamidopropyl)dimethylammonio]-1-propanesulfonate (CHAPS). The homogenate was centrifuged at 10,000×G for 30 minutes, and the resultant supernatant was stored at -80° C. before being assayed for COX activity.\nCOX activity was assayed as PGE2 formed/μg protein/time using an ELISA to detect the prostaglandin released. […] The PGE2 formed was measured by standard ELISA technology (Cayman Chemical)."}
{"smiles": "CS(=O)(=O)c1ccc(C2=CC3(C=C2c2ccc(F)cc2)CC3)cc1", "note": "[Example 1, 5-(4-Fluorophenyl)-6-[4-(methylsulfonyl)phenyl]spiro[2.4]hepta-4,6-diene]", "values": [{"measurement": "IC50", "result": "< 0.1", "unit": "µM"}]}
